Measured values reported in ChEMBL document CHEMBL3627665, “Challenges and Opportunities in the Discovery of New Therapeutics Targeting the Kynurenine Pathway” (J Med Chem, 2015).

Amino acid sequences for entries named in this document (tags omitted). A change or cut given only in a name is not applied to a line headed by its entry.
UniProt P48775: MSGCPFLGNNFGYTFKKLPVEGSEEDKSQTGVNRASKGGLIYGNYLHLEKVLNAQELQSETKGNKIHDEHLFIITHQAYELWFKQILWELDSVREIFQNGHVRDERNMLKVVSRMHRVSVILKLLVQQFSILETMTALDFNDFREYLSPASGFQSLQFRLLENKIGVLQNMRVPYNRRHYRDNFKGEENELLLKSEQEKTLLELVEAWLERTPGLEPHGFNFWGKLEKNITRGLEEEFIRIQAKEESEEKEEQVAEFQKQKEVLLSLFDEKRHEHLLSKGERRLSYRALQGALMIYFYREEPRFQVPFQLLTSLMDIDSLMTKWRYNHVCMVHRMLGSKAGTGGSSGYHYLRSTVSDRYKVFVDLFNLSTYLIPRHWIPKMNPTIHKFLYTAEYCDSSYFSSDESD

Molecular target: Tryptophan 2,3-dioxygenase (Homo sapiens, UniProt P48775)

- IC50: 280 nM
SMILES: Fc1ccc2c(/C=C/c3cccnc3)c[nH]c2c1
